Sequences of proteins named here, by UniProt entry; tags and fusion partners are left off.
UniProt P21397, whole entry: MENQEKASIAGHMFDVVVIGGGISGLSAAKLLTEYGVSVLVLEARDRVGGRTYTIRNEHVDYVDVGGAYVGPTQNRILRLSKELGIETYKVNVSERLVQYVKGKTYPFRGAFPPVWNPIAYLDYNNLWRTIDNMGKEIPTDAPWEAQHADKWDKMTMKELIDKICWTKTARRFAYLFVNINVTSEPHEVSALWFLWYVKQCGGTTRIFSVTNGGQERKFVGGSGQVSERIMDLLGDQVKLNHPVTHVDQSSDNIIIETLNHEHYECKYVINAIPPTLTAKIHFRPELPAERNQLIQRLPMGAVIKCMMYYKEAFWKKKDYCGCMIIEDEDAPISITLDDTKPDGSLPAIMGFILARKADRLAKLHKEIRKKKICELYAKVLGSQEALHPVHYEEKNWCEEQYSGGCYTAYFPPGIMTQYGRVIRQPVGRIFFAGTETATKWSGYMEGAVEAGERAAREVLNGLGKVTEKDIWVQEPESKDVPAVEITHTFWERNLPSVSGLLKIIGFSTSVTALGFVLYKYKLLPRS
UniProt P27338, whole entry: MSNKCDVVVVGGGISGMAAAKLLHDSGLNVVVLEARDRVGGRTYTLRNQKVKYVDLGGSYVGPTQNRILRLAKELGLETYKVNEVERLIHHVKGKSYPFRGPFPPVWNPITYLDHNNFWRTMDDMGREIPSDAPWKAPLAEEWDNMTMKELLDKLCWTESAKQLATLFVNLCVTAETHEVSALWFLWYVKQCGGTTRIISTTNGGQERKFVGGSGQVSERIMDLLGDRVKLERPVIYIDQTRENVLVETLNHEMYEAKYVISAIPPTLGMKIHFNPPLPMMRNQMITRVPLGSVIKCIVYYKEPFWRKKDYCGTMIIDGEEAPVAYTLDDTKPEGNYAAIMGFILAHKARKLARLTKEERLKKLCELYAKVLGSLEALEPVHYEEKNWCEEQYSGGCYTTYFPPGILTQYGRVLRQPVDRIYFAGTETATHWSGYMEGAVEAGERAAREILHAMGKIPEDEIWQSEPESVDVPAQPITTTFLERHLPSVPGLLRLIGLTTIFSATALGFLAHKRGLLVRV

According to patent US9643930B2, “Substituted indazole derivatives as in vitro MAO-B inhibitors” (“NTZ LAB” LTD., priority 2013, dated 2017):

What was measured:
human MAO-A = human MAO-A (Homo sapiens, UniProt P21397); test: Human MAO-A assay (recombinant enzyme, Amplex Red fluorescence)
human MAO-B = human MAO-B (Homo sapiens, UniProt P27338); test: Human MAO-B assay (recombinant enzyme, Amplex Red fluorescence); type: biochemical; design: purchased Sigma-Aldrich M7441; host or cells: baculovirus-infected insect cells (microsomal product); details: FIG. 4, read-out: estimated IC50 value at human MAO-B (unit inferred)

Question: `Cn1ncc2cc(C(=O)Nc3ccc(Cl)c(Cl)c3)ccc21` [Example 13] was tested. Which IC50 (human MAO-A) did it give?
Answer: Its IC50 is > 10000 nM.

Question: What about the IC50 (human MAO-B) of the same molecule?
Answer: The IC50 was 0.386 ± 0.052 nM.
